# PubChem BioAssay AID925 (National Center for Advancing Translational Sciences (NCATS), 2007)
# Only a part is listed here, and it is no random draw. The source made the active and inactive calls. Calls follow the shape of the dose curve; as a rule, active = well fitted activation curve with a large enough effect; inconclusive = small, poorly fitted or top-dose-only effect; inactive = flat fitted curve, though single readings scatter.
# Test: qHTS Assay for Modulators of Hemoglobin Beta Chain Splicing; also: 0% is about no effect
# Conditions: HBB splicing reporter cell assay, EGFP reporter with mutant IVS2-654 intron, normalised to 500 nM splice-correcting PNA; at 46.1 µM unless noted
# Source text: NIH Chemical Genomics Center [NCGC]
# NIH Molecular Libraries Screening Centers Network [MLSCN]
# PI Name: Dr. Ryszard Kole
# Modulation of Alternative Splicing as Therapy
# Abnormal splicing is associated with a number of diseases, including cancer and genetic diseases such as cystic fibrosis, muscular dystrophy and beta-thalassemia. Alteration of disease associated splicing patterns provides a promising target for treatment. […] Mutations in the second intron of the beta-globin gene at positions are clinically relevant and cause mis-splicing which results in an out of frame gene product.
# EGFP-654 and 705 HeLa Cells as screen system.
# HeLa cell lines were stably transfected with a construct in which the EGFP (enhanced green fluorescent protein) cDNA was interrupted by the second intron of the beta-globin gene (IVS2-654). The ISV2 intron contains mutations which cause mis-splicing of EGFP and premature termination of EGFP which results in a nonfluorescent protein product. […] Expression of the transgene was driven by the CMV promoter. We concluded that a low molecular weight compound, which restored correct splicing of intron 2 would also generate functional EGFP protein, resulting in a fluorescent signal. Thus, the HeLa cells that express the EGFP-654 construct can be used for high throughput screening of a chemical library.
# NCGC Assay Protocol Summary:
# High Throughput Screening. Freshly thawed HeLa EGFP-654 cells were seeded in 5 ul of optimem media (Invitrogen) containing 2 % fetal calf serum (Hyclone) and 1x penicillin/streptomycin (Invitrogen) at a concentration of 500 cells per well in 1536-well plates. Cells were incubated overnight at 37C in 5% CO2. The next day, cells were treated with DMSO, 500 nM antisense ISV2 654 PNA control oligo, or library compound and allowed to grow at 37C in 5% CO2 for 2 days. The PNA oligo blocked the mutation site in the intron and allowed proper (wild type) splicing to occur, resulting in full length EGFP expression and also allowed for optimization of the assay parameters. Plates were read in the Acumen Explorer (TTP Labtech) using 488 nm laser excitation and 500-520 nm emission PMT filter in a 1 x […] capture mode. Fluorescnet Fluorescent objects ranging in size from […] were measured and the total peak GFP intensity for each well was used for data analysis.
# Keywords: Thalassemia, beta-thalassemia, beta-globin, EGFP, ISV2 654, ISV2 705, SSO, PNA, antisense, splicing, MLSMR, MLSCN, NIH Roadmap, qHTS, NCGC
row,Structure (SMILES),activation
1,O=C(OC1CN2CCC1CC2)C1c2ccccc2Oc2ccccc21 (stereo not given),inactive: 3.61% [at 1.84 µM]
2,N#CC1(Nc2ccccc2)CCN(CCc2ccccc2)CC1,inactive: -2.25%
3,NC1CCCCC1.NP(=O)(O)N(CCCl)CCCl,inactive: 2.37% [at 9.22 µM]
4,CCOP(=O)(Cl)Cl,inactive: 1.15%
5,N/C(=N\O)c1c(N)no[n+]1[O-],inactive: -4.43% [at 57.5 µM]
6,ClCCOP(OCCCl)OCCCl,inactive: 0.517%
7,Fc1ccccc1NC1CCN(Cc2ccccc2)CC1,inactive: 0.291% [at 9.22 µM]
8,CCC(CO)(C(=O)OC1CN2CCC1CC2)c1ccccc1 (stereo not given),inactive: -0.553%
9,O=C(O)C1(Nc2ccccc2)CCN(Cc2ccccc2)CC1,inactive: 1.98% [at 9.22 µM]
10,CCOc1ncccc1C(=O)NCC1(N2CCOCC2)CCCCC1,inactive: 1.15%
